Earlier results on 41 compounds are cited in PubChem BioAssay AID1811.

Common to all, as to assay: PubChem AID 1811
Data set [1] has as its target isopentenyl diphosphate delta-isomerase. The conditions noted are these: PDB complex binding affinities from literature.
Data set [2] addresses glycogen phosphorylase. The conditions noted are these: PDB complex binding affinities from literature; for Ki: Ki when reported.
For data set [3], the target named is purine nucleoside phosphorylase. The conditions noted are these: PDB complex binding affinities from literature; Ki when reported.
Data set [4] deals with odorant-binding protein. The conditions noted are these: PDB complex binding affinities from literature; IC50 when reported.
Data set [5] deals with thrombin alpha. The conditions noted are these: PDB complex binding affinities from literature; Ki when reported.
Data set [6] addresses calmodulin-sensitive adenylate cyclase. The conditions noted are these: PDB complex binding affinities from literature; for Ki: Ki when reported.
Data set [7] addresses carbonic anhydrase ii. The conditions noted are these: PDB complex binding affinities from literature; Kd when reported.
Data set [8] addresses glutamate receptor 2. The conditions noted are these: PDB complex binding affinities from literature.
The target in data set [9] is acetylcholinesterase. The conditions noted are these: PDB complex binding affinities from literature; IC50 when reported.
Data set [10] concerns the target aspartate aminotransferase. The conditions noted are these: PDB complex binding affinities from literature; Kd when reported.
Data set [11] has as its target nucleoside diphosphate kinase. The conditions noted are these: PDB complex binding affinities from literature; Kd when reported.
Data set [12] has as its target penicillopepsin. The conditions noted are these: PDB complex binding affinities from literature; Ki when reported.
Data set [13] addresses glutamate receptor subunit 2. The conditions noted are these: PDB complex binding affinities from literature; IC50 when reported.
Data set [14] addresses cell division protein kinase 2. The conditions noted are these: PDB complex binding affinities from literature; IC50 when reported.
The target of data set [15] is trypsin beta. The conditions noted are these: PDB complex binding affinities from literature; for Kd: Kd when reported.
For data set [16], the target named is neuraminidase. The conditions noted are these: PDB complex binding affinities from literature.
Data set [17] has as its target glutamate [nmda] receptor. The conditions noted are these: PDB complex binding affinities from literature; Ki when reported.
Data set [18] deals with thymidylate synthase. The conditions noted are these: PDB complex binding affinities from literature; Kd when reported.

Where only a bound is given, the exact number is not on record here.

As to `C[C@](O)(CBr)CCOP(=O)(O)OP(=O)(O)O`, the Ki in [1] (Ki when reported) is 1400 nM.

In the case of `O=c1[nH]c(=O)c2[nH]c(=O)[nH]c2[nH]1`, in data set [2] (Kd when reported), the Kd is 550 µM. For `O=c1[nH]cnc2c([C@@H]3O[C@H](CO)[C@@H](O)[C@H]3O)[nH]nc12`, the Ki in [3] is 5 µM. On to `OC[C@H]1O[C@@H]2O[C@H]3[C@H](O)[C@@H](O)[C@@H](O[C@H]4[C@H](O)[C@@H](O)[C@@H](O[C@H]5[C@H](O)[C@@H](O)[C@@H](O[C@H]6[C@H](O)[C@@H](O)[C@@H](O[C@H]7[C@H](O)[C@@H](O)[C@@H](O[C@H]8[C@H](O)[C@@H](O)[C@@H](O[C@H]9[C@H](O)[C@@H](O)[C@@H](O[C@H]1[C@H](O)[C@H]2O)O[C@@H]9CO)O[C@@H]8CO)O[C@@H]7CO)O[C@@H]6CO)O[C@@H]5CO)O[C@@H]4CO)O[C@@H]3CO`, for which, in data set [2], the Ki is 7400 µM. In the case of `O=C(c1ccccc1)c1ccccc1`, the IC50 in [4] is 3.6 µM.

`N=C(N)c1ccc([C@H]2[C@H]3C(=O)N(Cc4ccc(F)cc4)C(=O)[C@H]3[C@@H]3CCCN32)cc1`: the inhibition constant Ki in data set [5] is 57 nM. On to `O=c1[nH]cnc2c(CN3C[C@H](CO)[C@@H](O)C3)c[nH]c12`, for which the Ki in data set [3] was 0.0013 µM. For the compound `Cc1ccc(C(C)C)c(O)c1`, the IC50 in data set [4] is 2.5 µM.

For the compound `Nc1ncnc2c1ncn2[C@@H]1O[C@H](COP(=O)(O)OP(=O)(O)OP(=O)(O)O)C[C@H]1O`, the Kd in data set [6] (Kd when reported) was 130 µM. As for `NS(=O)(=O)c1ccc(CCNC(=S)Nc2ccc(-c3c4ccc(=O)cc-4oc4cc(O)ccc34)c(C(=O)O)c2)cc1`, in data set [7], the Kd was 0.64 nM. With `CN(C)CCOP(=O)(O)OP(=O)(O)O`, the Kd in data set [1] (Kd when reported) is less than 0.12 nM. On to `Cn1nnc(-c2o[nH]c(=O)c2C[C@H](N)C(=O)O)n1`, for which the half-inhibitory concentration (IC50) in data set [8] (IC50 when reported) is 9.7 nM. With `O=c1ccc2c([nH]1)CCC[C@H]2NCCCCCCCCCCNc1c2c(nc3ccccc13)CCCC2`, the IC50 in [9] was 8.8 nM. Take `O=C(O)CCCC(=O)O`: the Kd in data set [10] is 1.5 mM.

For `NC(=O)c1ncn([C@@H]2O[C@H](COP(=O)(O)OP(=O)(O)OP(=O)(O)O)[C@@H](O)[C@H]2O)n1`, the Kd in data set [11] was 24 µM.

As to `COC(=O)[C@H](Cc1ccccc1)OP(=O)(O)[C@H](CC(C)C)NC(=O)[C@@H](NC(=O)[C@@H](NC(=O)CC(C)C)C(C)C)C(C)C`, the Ki in [12] is 2.8 nM. `CC(C)[C@H]1CN[C@H](C(=O)O)[C@H]1CC(=O)O`: the Ki in data set [8] (Ki when reported) was 662 nM. Besides, the IC50 in data set [13] is 14.5 µM. As to `NC(N)=NCCCC(=O)NC[C@@H]1CCCN1C(=O)[C@H](CO)NS(=O)(=O)c1ccc2ccccc2c1`, the Ki in data set [5] is 79 nM. With `Cc1nc(C)c(-c2ccnc(N)n2)s1`, the IC50 in data set [14] was 13 µM. As to `COC(=O)C1CCN(C(=O)[C@H](Cc2cccc(C(=N)N)c2)NS(=O)(=O)c2ccc3ccccc3c2)CC1`, the Kd in [15] was 28 nM. Regarding `Nc1ncnc2c1ccn2[C@@H]1O[C@H](CO)[C@@H](O)[C@H]1O`, the Ki in data set [3] is 120 µM. For `O=C(OCc1ccccc1)c1ccccc1`, the IC50 in data set [4] is 3.9 µM. Consider `CC(=O)N[C@H]1[C@H]([C@H](O)[C@H](O)CO)OC(C(=O)O)=C[C@@H]1N`, for which the Ki in data set [16] (Ki when reported) is 40 nM. As for `Nc1ncnc2c1ncn2CCOCP(=O)(O)OP(=O)(O)OP(=O)(O)O`, the Ki in data set [6] is 0.027 µM.

For `Nc1nc2c(ncn2COCCO)c(=O)[nH]1`, the Ki in data set [3] is 90 µM. On to `O=C1COc2ccc(Cl)cc2CNC(=O)[C@@H]2CCCN2C(=O)[C@@H](C2CCCCC2)NC(=O)CCN1`, for which, in [5], the Ki was 1.3 nM. As to `N#Cc1ccc(N(Cc2ccc(OS(N)(=O)=O)c(Br)c2)n2cnnc2)cc1`, in data set [7], the Kd is 454 nM.

Take `Nc1ncnc2c1ncn2[C@@H]1O[C@H](COP(=O)(O)CP(=O)(O)OP(=O)(O)O)[C@@H](O)[C@H]1O`: in [6], the Ki is 850 µM. Regarding `CCCN(CCc1ccccc1)C(=O)[C@@H]1OC(C(=O)O)=C[C@H](N)[C@H]1NC(C)=O`, in data set [16] (IC50 when reported), the IC50 was 2 nM. With `CC(=O)N[C@@H]1O[C@H](CO)[C@@H](O)[C@H](O)[C@H]1O`, in data set [2], the Ki was 32 µM. As to `O=C(O)c1cc(=O)c2c(Cl)cc(Cl)cc2[nH]1`, the inhibitory constant (Ki) in data set [17] is 540 nM.

As for `Cc1ccc(S(=O)(=O)N[C@@H](Cc2cccc(C(=N)N)c2)C(=O)N2CCCCC2)cc1`, the Ki in data set [15] (Ki when reported) is 1200 nM. `CNC(=O)C(F)(F)C(O)(O)[C@H](CC(C)C)NC(=O)[C@@H](NC(=O)[C@@H](NC(=O)CC(C)C)C(C)C)C(C)C`: the inhibition constant (Ki) in data set [12] was 1 nM.

Regarding `O=C(NC(=O)c1ccccc1)N[C@@H]1O[C@H](CO)[C@@H](O)[C@H](O)[C@H]1O`, the Ki in [2] is 4.6 µM.

On to `O=c1[nH]c2cc([N+](=O)[O-])c([N+](=O)[O-])cc2[nH]c1=O`, for which the IC50 in data set [13] was 0.998 µM. In the case of `Cc1cn([C@H]2C[C@H](O)[C@@H](COP(=O)(O)O)O2)c(=O)[nH]c1=O`, the Kd in data set [18] was 3.27 µM. For `N=C(N)c1cccc(C[C@H](NS(=O)(=O)c2ccc3ccccc3c2)C(=O)N2CCNCC2)c1`, in [15], the Kd was 125 nM. As to `CCOC(=O)CP(=O)(O)[C@H](CC(C)C)NC(=O)[C@@H](NC(=O)[C@@H](NC(=O)CC(C)C)C(C)C)C(C)C`, in data set [12], the Ki is 22 nM. Consider `Cc1ccc(S(=O)(=O)N[C@@H](Cc2ccc(C(=N)N)cc2)C(=O)N2CCCCC2)cc1`, for which, in data set [5], the inhibitory constant (Ki) was 1300 nM. Turning to `COC(=O)[C@@H]1Cc2cccc(c2)CNC(=O)C[C@H](NC(=O)[C@@H](NC(=O)CC(C)C)C(C)C)C(=O)N[C@@H](CC(C)C)P(=O)(O)O1`, the Ki in [12] was 0.1 nM. Turning to `COC(=O)[C@H](Cc1ccccc1)OP(=O)(O)[C@H](CC(C)C)NC(=O)[C@H](CC(N)=O)NC(=O)[C@@H](NC(=O)CC(C)C)C(C)C`, the Ki in data set [12] was 42 nM.
